{
  "source": "patent US20230413823A1",
  "about": "“HYPERLOADED YEAST CELL WALL PARTICLE AND USES THEREOF” (priority 2022, published 2023)",
  "origin": "cited, not measured here",
  "details": "Table 1; cited from earlier work",
  "data": [
    {"molecule": "C=CCc1ccc(O)c(OC)c1", "note": "[Eugenol]", "values": [
      {"measurement": "Log P", "value": 2.3}
    ]}
  ]
}
